Reference: US12312328B2, “Pyrazoline dihydroquinolones, pharmaceutical compositions, and uses” (Emory University, priority 2013, dated 2025)

Chains of the proteins cited; added tags and fusions are not shown. Residues count along the entry.
UniProt Q62645, 28-1323: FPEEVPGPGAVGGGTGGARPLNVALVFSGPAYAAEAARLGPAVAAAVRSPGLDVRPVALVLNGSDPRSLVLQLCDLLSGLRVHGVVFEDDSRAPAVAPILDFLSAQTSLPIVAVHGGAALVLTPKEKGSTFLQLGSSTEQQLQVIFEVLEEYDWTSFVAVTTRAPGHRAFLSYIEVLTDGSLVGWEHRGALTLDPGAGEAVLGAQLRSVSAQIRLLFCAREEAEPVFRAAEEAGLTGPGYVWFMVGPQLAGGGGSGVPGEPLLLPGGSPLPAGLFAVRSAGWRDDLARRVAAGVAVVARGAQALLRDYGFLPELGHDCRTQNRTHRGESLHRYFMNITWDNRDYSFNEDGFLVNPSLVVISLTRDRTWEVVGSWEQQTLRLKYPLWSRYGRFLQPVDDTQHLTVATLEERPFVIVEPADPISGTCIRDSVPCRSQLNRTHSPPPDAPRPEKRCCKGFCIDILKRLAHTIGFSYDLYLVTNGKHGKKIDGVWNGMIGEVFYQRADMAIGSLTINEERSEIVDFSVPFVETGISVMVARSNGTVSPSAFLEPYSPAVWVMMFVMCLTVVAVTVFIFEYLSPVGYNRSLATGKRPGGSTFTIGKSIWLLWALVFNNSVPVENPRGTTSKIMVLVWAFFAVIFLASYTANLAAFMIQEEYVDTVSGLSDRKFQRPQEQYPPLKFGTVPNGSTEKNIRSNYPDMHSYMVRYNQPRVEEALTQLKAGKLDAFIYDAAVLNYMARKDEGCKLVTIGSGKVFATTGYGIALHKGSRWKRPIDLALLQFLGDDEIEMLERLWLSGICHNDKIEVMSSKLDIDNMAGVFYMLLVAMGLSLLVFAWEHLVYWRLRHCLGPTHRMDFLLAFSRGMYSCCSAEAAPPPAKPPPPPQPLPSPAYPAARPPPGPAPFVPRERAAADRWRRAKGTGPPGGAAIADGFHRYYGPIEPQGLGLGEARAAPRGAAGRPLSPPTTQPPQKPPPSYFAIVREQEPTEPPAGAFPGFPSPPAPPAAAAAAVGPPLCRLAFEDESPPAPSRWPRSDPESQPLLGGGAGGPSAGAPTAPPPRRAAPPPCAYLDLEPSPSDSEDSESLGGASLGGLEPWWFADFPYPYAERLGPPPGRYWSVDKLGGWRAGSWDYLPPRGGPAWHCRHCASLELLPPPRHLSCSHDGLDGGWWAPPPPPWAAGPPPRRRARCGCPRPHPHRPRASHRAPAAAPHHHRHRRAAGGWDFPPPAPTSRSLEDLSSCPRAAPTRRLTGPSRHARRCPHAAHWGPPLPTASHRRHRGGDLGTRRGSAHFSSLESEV

Biological target: GluN1/GluN2D receptors (Rattus norvegicus, UniProt P35439+Q62645)
Test: Whole-cell patch clamp recordings of GluN1/GluN2D receptors expressed in HEK293 cells
Type: cell-based

- kon (onset of inhibition, read-out: association rate kON): 123000 M⁻¹ s⁻¹
- koff (y-intercept of linear regression, read-out: dissociation rate kOFF): 0.122 s⁻¹
Compound: O=C(O)/C=C/C(=O)N1N=C(c2c(-c3ccc(Br)cc3)c3ccccc3[nH]c2=O)CC1c1ccc(Cl)cc1 (racemic) [Compound 997-33, (E)-4-(3-(4-(4-Bromophenyl)-2-oxo-1,2-dihydroquinolin-3-yl)-5-(4-chlorophenyl)-4,5-dihydro-1H-pyrazol-1-yl)-4-oxobut-2-enoic acid]
